## scFv variants of Ab-91 (heavy chain) against a SARS-CoV-2 spike peptide

Source: Engelhart et al. 2022 (doi:10.1038/s41597-022-01779-4), MIT Lincoln Laboratory and A-Alpha Bio; data file from the FLAb repository.

Antigen: PDVDLGDISGINAS, a 14-residue peptide of the SARS-CoV-2 spike HR2 region.

Each scFv is VL, a 15-residue (Gly4Ser)3 linker, VH, as in the parent Ab-91, and differs from it in the CDRs of the heavy chain only.
VL: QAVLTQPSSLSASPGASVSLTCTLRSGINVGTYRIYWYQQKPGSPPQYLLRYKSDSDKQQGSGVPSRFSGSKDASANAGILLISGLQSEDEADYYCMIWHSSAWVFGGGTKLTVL
VH: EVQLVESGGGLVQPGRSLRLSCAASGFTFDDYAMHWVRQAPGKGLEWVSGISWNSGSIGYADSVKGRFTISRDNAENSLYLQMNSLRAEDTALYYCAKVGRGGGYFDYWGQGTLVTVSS

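The starting antibody came from a phage panning campaign against this peptide. In library AAYL51, one, two or three CDR residues were substituted; doubles and triples were drawn at random. In AlphaSeq, yeast of one mating type display the scFv and yeast of the other type display the target. Binding brings cells together so that they mate, and sequencing counts the barcode pairs among the diploids. Each replicate has its own calibration line, from reference interactions of the BCL2 family. There are three technical replicates.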

Variants are written as CDR1, CDR2 and CDR3 of the heavy chain (limits as in the source). Parent: GFTFDDYAMH, GISWNSGSIGYADSVK, VGRGGGYFDY. Affinities are written as log10 Kd with Kd in nM; a lower number is a better binder. Replicates are averaged; those with no signal do not enter the mean. An entry "n.d." has no value in the source: the pair was not observed among the diploids in that replicate. This suggests poor binding but is not conclusive. Background: pairings of library AAYL51 with three empty control strains gave a value in 21% of cases (median 4.54, 5th percentile 3.26). Values in that range, when seen in few replicates, are hard to tell from nonspecific mating. For each scFv, signals with the empty controls are counted beside the result, with their mean in brackets.

{"CDR-H1": "GFTFWDYAMH", "CDR-H2": "GISWTSGSVGYADSVK", "CDR-H3": "VGRGGGYFDY", "log10 Kd, replicates": "2.74 / 3.66 / 3.57", "mean log10 Kd (nM)": "3.32", "empty controls": "4/9 (4.18)"}
{"CDR-H1": "GFTADDYAMQ", "CDR-H2": "GISWNSGSIGYADSVK", "CDR-H3": "VGRGGRYFDY", "log10 Kd, replicates": "5.10 / 6.56 / 4.67", "mean log10 Kd (nM)": "5.44", "empty controls": "8/9 (5.39)"}
{"CDR-H1": "GFTFDDYAMH", "CDR-H2": "GISWNTGSMGYADSVK", "CDR-H3": "VGRGGGYFDV", "log10 Kd, replicates": "1.63 / 1.59 / 1.03", "mean log10 Kd (nM)": "1.42", "empty controls": "2/9 (4.62)"}
{"CDR-H1": "GFNFDDDAMH", "CDR-H2": "GISWNSGSIGYADSRK", "CDR-H3": "VGRGGGYFDY", "log10 Kd, replicates": "n.d. / n.d. / n.d.", "mean log10 Kd (nM)": "n.d.", "empty controls": "1/9 (3.29)"}
{"CDR-H1": "GFTFDDQAMH", "CDR-H2": "GITWNSGSIGYADSVK", "CDR-H3": "VGQGGGYFDY", "log10 Kd, replicates": "4.36 / 5.03 / 5.50", "mean log10 Kd (nM)": "4.96", "empty controls": "6/9 (5.29)"}
{"CDR-H1": "GFTFHDYAMH", "CDR-H2": "GISWNSGSIGYRDSVA", "CDR-H3": "VGRGGGYFDY", "log10 Kd, replicates": "3.63 / 2.94 / 3.01", "mean log10 Kd (nM)": "3.19", "empty controls": "1/9 (5.04)"}
{"CDR-H1": "GFTFDDYAMH", "CDR-H2": "GISWNSGSIGYFDSVK", "CDR-H3": "VGRGGGYFDY", "log10 Kd, replicates": "n.d. / n.d. / n.d.", "mean log10 Kd (nM)": "n.d.", "empty controls": "3/9 (4.47)"}
{"CDR-H1": "GFTFDDYAMH", "CDR-H2": "GISWNSGRIGCADSVK", "CDR-H3": "VGRGGHYFDY", "log10 Kd, replicates": "5.37 / 5.41 / n.d.", "mean log10 Kd (nM)": "5.39", "empty controls": "8/9 (4.51)"}
{"CDR-H1": "GFTFDDYQMH", "CDR-H2": "GISWNSGSIGYADSVK", "CDR-H3": "VGRGGIYFEY", "log10 Kd, replicates": "n.d. / n.d. / n.d.", "mean log10 Kd (nM)": "n.d.", "empty controls": "0/9"}
{"CDR-H1": "GFTFDDYAMH", "CDR-H2": "GISWNSGGHGYADMVK", "CDR-H3": "VGRGGGYFDY", "log10 Kd, replicates": "2.11 / 2.65 / 1.94", "mean log10 Kd (nM)": "2.23", "empty controls": "4/9 (4.03)"}
{"CDR-H1": "GPTFDDYFMH", "CDR-H2": "GISWNSGSIGYADSVK", "CDR-H3": "VGRGGGYEDY", "log10 Kd, replicates": "n.d. / n.d. / n.d.", "mean log10 Kd (nM)": "n.d.", "empty controls": "1/9 (3.42)"}
{"CDR-H1": "FFTFQDYAMH", "CDR-H2": "GISWNSGSIGYADSVK", "CDR-H3": "VGRIGGYFDY", "log10 Kd, replicates": "4.79 / n.d. / n.d.", "mean log10 Kd (nM)": "4.79", "empty controls": "1/9 (4.41)"}
{"CDR-H1": "GFTFDDYAMH", "CDR-H2": "GIPWNIGTIGYADSVK", "CDR-H3": "VGRGGGYFDY", "log10 Kd, replicates": "4.49 / n.d. / n.d.", "mean log10 Kd (nM)": "4.49", "empty controls": "0/9"}
{"CDR-H1": "GFTFDDYAPH", "CDR-H2": "GPSENSGSIGYADSVK", "CDR-H3": "VGRGGGYFDY", "log10 Kd, replicates": "n.d. / n.d. / n.d.", "mean log10 Kd (nM)": "n.d.", "empty controls": "0/9"}
{"CDR-H1": "GFTFDDYAMG", "CDR-H2": "GRSWNSGSIGYADSVK", "CDR-H3": "VGRGGGYFDH", "log10 Kd, replicates": "n.d. / n.d. / n.d.", "mean log10 Kd (nM)": "n.d.", "empty controls": "2/9 (3.71)"}
{"CDR-H1": "GFWFDDYAMH", "CDR-H2": "GISWNSGSMGYADSVP", "CDR-H3": "VGRGGGYFDY", "log10 Kd, replicates": "n.d. / n.d. / n.d.", "mean log10 Kd (nM)": "n.d.", "empty controls": "0/9"}
{"CDR-H1": "GFTFDDYAMH", "CDR-H2": "GISWNSGSIGYADSVK", "CDR-H3": "CGREGGKFDY", "log10 Kd, replicates": "4.15 / n.d. / n.d.", "mean log10 Kd (nM)": "4.15", "empty controls": "3/9 (4.37)"}
{"CDR-H1": "GFTFDDYAMH", "CDR-H2": "GISMNSGSIGGADSVK", "CDR-H3": "VGRGHGYFDY", "log10 Kd, replicates": "n.d. / n.d. / 4.53", "mean log10 Kd (nM)": "4.53", "empty controls": "4/9 (4.36)"}
{"CDR-H1": "GFTFDDYAMH", "CDR-H2": "VISWNCGSIGYADSVK", "CDR-H3": "VGRGGVYFDY", "log10 Kd, replicates": "n.d. / 5.54 / n.d.", "mean log10 Kd (nM)": "5.54", "empty controls": "1/9 (4.09)"}
{"CDR-H1": "GWTFDLYAMH", "CDR-H2": "GISWNSGSIGYAPSVK", "CDR-H3": "VGRGGGYFDY", "log10 Kd, replicates": "5.03 / 4.85 / n.d.", "mean log10 Kd (nM)": "4.94", "empty controls": "4/9 (4.65)"}
{"CDR-H1": "GFTFMDSAMH", "CDR-H2": "QISWNSGSIGYADSVK", "CDR-H3": "VGRGGGYFDY", "log10 Kd, replicates": "4.33 / n.d. / n.d.", "mean log10 Kd (nM)": "4.33", "empty controls": "0/9"}
{"CDR-H1": "GFTFDDYAMH", "CDR-H2": "GTSWNSGSIGYADSDK", "CDR-H3": "VGRSGGYFDY", "log10 Kd, replicates": "n.d. / n.d. / n.d.", "mean log10 Kd (nM)": "n.d.", "empty controls": "0/9"}
{"CDR-H1": "GFTFCDYAMH", "CDR-H2": "GISWNSGSYGYADSVK", "CDR-H3": "VGPGGGYFDY", "log10 Kd, replicates": "2.92 / 2.94 / 2.42", "mean log10 Kd (nM)": "2.76", "empty controls": "5/9 (5.33)"}
{"CDR-H1": "GFTFDDYAMH", "CDR-H2": "GISWNSGSILHADSVK", "CDR-H3": "VGRGRGYFDY", "log10 Kd, replicates": "n.d. / 4.65 / n.d.", "mean log10 Kd (nM)": "4.65", "empty controls": "1/9 (5.50)"}
{"CDR-H1": "GGTFDDYAMH", "CDR-H2": "GISWNSGSIDYADSVK", "CDR-H3": "VGRGGGYFRY", "log10 Kd, replicates": "4.45 / 3.72 / 4.00", "mean log10 Kd (nM)": "4.06", "empty controls": "7/9 (4.48)"}
{"CDR-H1": "FFTFDDYAMH", "CDR-H2": "GISWNVGSEGYADSVK", "CDR-H3": "VGRGGGYFDY", "log10 Kd, replicates": "5.86 / n.d. / 5.30", "mean log10 Kd (nM)": "5.58", "empty controls": "2/9 (4.81)"}
{"CDR-H1": "GFTAYDYAMH", "CDR-H2": "GISWNSGSIGYADSVE", "CDR-H3": "VGRGGGYFDY", "log10 Kd, replicates": "4.95 / 6.03 / n.d.", "mean log10 Kd (nM)": "5.49", "empty controls": "3/9 (5.23)"}

Repeated from above, the 2 best binders with a signal in all replicates:

| CDR-H1 | CDR-H2 | CDR-H3 | log10 Kd, replicates | mean log10 Kd (nM) | empty controls |
|---|---|---|---|---|---|
| GFTFDDYAMH | GISWNTGSMGYADSVK | VGRGGGYFDV | 1.63 / 1.59 / 1.03 | 1.42 | 2/9 (4.62) |
| GFTFDDYAMH | GISWNSGGHGYADMVK | VGRGGGYFDY | 2.11 / 2.65 / 1.94 | 2.23 | 4/9 (4.03) |